{
  "sequences": {"note": "The chains behind the UniProt entries cited, without tags or fusion partners.", "UniProt Q9UNQ0, whole entry": "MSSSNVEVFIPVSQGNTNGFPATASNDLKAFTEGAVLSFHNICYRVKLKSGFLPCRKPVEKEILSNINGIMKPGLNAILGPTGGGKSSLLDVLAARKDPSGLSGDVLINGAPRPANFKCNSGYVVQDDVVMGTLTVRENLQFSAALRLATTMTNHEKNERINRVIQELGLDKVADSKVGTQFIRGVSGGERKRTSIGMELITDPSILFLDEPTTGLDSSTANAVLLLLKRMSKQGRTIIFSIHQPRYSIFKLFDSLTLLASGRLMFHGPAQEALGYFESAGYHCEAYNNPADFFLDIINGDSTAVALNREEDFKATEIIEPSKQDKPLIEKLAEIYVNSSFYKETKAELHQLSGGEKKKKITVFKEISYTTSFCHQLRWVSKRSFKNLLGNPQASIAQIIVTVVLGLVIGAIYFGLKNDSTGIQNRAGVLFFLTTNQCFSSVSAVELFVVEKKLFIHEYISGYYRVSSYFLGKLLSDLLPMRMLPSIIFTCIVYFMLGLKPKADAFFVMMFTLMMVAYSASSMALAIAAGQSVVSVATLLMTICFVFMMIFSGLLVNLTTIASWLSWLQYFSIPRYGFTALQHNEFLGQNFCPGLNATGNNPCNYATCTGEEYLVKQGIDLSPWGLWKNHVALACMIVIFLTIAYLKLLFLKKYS"},
  "source": "PubChem BioAssay AID1325",
  "about": "(NMMLSC, 2008)",
  "note": "This is a selection; strong and weak results do not stand in their true shares. Some of these compounds have results that are not shown, active ones among them. Calls of active or inactive are those of the source.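 How the source made its calls: active means inhibition above 80%; inactive means the rest.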",
  "data": [
    {"target": "Broad substrate specificity ATP-binding cassette transporter ABCG2 (Homo sapiens) (UniProt Q9UNQ0)", "test": "blockers of JC-1 export by ABCG2 – multiplex with ABCB1, IgMXP3 cells, flow cytometry, primary screen (AID 1325);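 further: 0% = DMSO and 100% = nicardipine control wells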", "conditions": "JC-1 efflux, at 6.6 µM, hits give high values", "values": [
      {"smiles": "O=C(NCC1(N2CCCCC2)CCCCC1)c1cc([N+](=O)[O-])ccc1Cl", "inhibition": "inactive: 7.61%"},
      {"smiles": "CC(C)N1C(=O)CC2(CCN(CCOC(=O)C(O)(c3ccccc3)c3ccccc3)CC2)C1=O", "inhibition": "inactive: -0.26%"},
      {"smiles": "CN(C)C1CCCC1OC(=O)C(O)(c1ccccc1)c1ccccc1", "note": "(centres undefined)", "inhibition": "inactive: 4.07%"},
      {"smiles": "Cc1ccccc1C(=O)NCC1(N2CCCCC2)CCCCC1", "inhibition": "inactive: -1.52%"},
      {"smiles": "CCN1CCCC(OC(=O)C2(O)c3ccccc3C=Cc3ccccc32)C1", "note": "(centres undefined)", "inhibition": "inactive: 0.58%"},
      {"smiles": "C=CCN1CCN(CCOC(=O)C(O)(c2ccccc2)c2ccccc2)CC1", "inhibition": "inactive: 0.64%"},
      {"smiles": "COc1cccc(C(=O)NCC2(N3CCCCC3)CCCCC2)c1", "inhibition": "inactive: -0.8%"},
      {"smiles": "O=C(OC1CN2CCC1CC2)C(CO)(c1ccccc1)c1ccccc1", "note": "(centres undefined)", "inhibition": "inactive: 0.75%"},
      {"smiles": "CN(C)c1cccc(C(=O)NCC2(N(C)C)CCCCC2)c1", "inhibition": "active: 80.5%"}
    ]}
  ]
}
